Each structure is given as a SMILES string.

The chains behind the UniProt entries cited, without tags or fusion partners. Residues count along the entry.
UniProt P56817, 46-501 limits assumed: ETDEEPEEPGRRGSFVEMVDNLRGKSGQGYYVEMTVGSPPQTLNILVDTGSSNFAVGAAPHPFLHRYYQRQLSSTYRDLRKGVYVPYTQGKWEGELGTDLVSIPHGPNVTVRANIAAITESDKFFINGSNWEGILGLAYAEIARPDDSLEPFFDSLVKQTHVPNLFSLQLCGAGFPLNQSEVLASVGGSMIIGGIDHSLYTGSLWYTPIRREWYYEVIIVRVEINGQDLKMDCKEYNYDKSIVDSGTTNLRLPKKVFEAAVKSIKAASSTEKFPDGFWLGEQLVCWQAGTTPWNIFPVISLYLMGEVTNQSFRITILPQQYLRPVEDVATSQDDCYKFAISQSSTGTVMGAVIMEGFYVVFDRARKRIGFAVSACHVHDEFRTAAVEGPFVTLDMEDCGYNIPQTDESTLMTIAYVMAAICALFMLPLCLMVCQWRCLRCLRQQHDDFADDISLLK

In this test the target is human BACE1 (Homo sapiens, UniProt P56817). Briefly: BACE1 fluorescent kinetic assay (cleavage of peptide substrate WABC-6). Type of test: biochemical. To be noted: read-out: BACE1 IC50 μM; Activity Table, Examples 1-108; 10 nM enzyme, 25 μM substrate WABC-6, pH 4.5, room temperature; tested form: HCl.

As for `CC=CCNc1cccc(C2(c3ccc(OC(F)F)cc3)N=C(N)N(C)C2=O)c1` (stereo not shown), the IC50 fell in the range of 0.11 to 1 µM.

A word on the IC50: it is the point on the concentration scale where inhibition reaches its midpoint.

The values are drawn from patent US7723368B2, “Amino-5-[4-(difluoromethoxy)phenyl]-5-phenylimidazolone compounds for the inhibition of beta-secretase” (Wyeth LLC, priority 2007, dated 2010).
